This note sets out measurements from ChEMBL document CHEMBL2021853, “Discovery of 1,2,4-triazine derivatives as adenosine A(2A) antagonists using structure based drug design” (J Med Chem, 2012).

Chains of the proteins cited; added tags and fusions are not shown.
UniProt P30542, whole entry: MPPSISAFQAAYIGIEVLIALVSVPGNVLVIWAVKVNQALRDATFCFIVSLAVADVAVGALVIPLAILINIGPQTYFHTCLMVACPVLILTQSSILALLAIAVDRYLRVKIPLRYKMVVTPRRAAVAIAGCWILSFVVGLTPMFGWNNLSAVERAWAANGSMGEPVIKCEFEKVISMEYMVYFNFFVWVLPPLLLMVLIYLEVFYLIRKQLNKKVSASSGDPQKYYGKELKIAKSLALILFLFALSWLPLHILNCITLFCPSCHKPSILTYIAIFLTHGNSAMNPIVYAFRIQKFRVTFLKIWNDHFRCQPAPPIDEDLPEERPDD

The target of one data set is Adenosine receptor A2a (Homo sapiens, UniProt P29274). Kind of data set: biochemical.
Data set [1] in a line: AUC (infinity) in rat at 2 mg/kg, po. In kind it is ADME, organism-based. Set-up: time infinity, dose 2 mg/kg, route oral. Particulars: plasma.
In another data set the target is Adenosine receptor A1 (Homo sapiens, UniProt P30542). The experiment in a line: biochemical.
A further data set deals with Plasma. As to conditions: rat, 6 h, 10 µM.
The next data set has as its system Liver microsomes. Particulars: rat, 1 µM.
The next data set concerns the target T1, Adenosine receptor A2b (Homo sapiens, UniProt P29275).
T1 sequence (P29275 whole entry): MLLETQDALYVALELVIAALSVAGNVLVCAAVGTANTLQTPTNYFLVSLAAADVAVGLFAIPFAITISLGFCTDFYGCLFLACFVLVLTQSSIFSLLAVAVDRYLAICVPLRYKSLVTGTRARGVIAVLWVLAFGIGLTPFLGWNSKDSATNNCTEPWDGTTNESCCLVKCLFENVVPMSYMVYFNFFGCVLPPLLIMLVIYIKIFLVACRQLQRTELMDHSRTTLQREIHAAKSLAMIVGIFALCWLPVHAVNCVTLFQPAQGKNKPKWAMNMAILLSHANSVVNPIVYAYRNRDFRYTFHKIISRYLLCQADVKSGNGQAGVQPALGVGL
The experiment in a line: Inhibition of adenosine A2B receptor.

Take `Cc1cc(-c2nnc(N)nc2-c2cccc(F)c2)cc(C)n1`: the inhibitory constant (Ki) – broadly, a dissociation constant, usually derived from enzyme kinetics or from competition with a known ligand – on Adenosine receptor A2a was 10.5 nM.

Consider `Cc1cc(-c2nnc(N)nc2-c2ccccc2)cc(C(F)(F)F)n1`, for which the total exposure AUC(0-inf) (in general, total exposure, with the tail of the curve extrapolated) in data set [1] was determined as 846 ng·h/mL. The results for the Ki on Adenosine receptor A2a and on Adenosine receptor A1 were 3.47 nM and 31.6 nM, respectively.

`Cc1cc(-c2nnc(N)nc2-c2ccc(F)cc2)cc(C)n1`: the PPB with Plasma is reported as 69%. Also, the t1/2 in the data set with Liver microsomes worked out at 1.67 h.

Take `Cc1cc(-c2nnc(N)nc2-c2ccccc2)cc(C)c1O`: affinity at Adenosine receptor A2a was put at a Ki of 4.07 nM.

In turn, `Nc1nnc(-c2cc(Cl)cc(Cl)c2)c(-c2ccccc2)n1` had a Ki on Adenosine receptor A2b of 39.8 nM.

For `Nc1nnc(-c2ccccc2)c(-c2ccccc2)n1`, the affinity on Adenosine receptor A2a corresponds to a Ki of 117 nM.
